Laboratory results from patent US6623741B1, “Methods and compositions for inhibition of membrane fusion-associated events including RSV transmission” (Trimeris, Inc., priority 2000, dated 2003).

Amino acid sequences for entries named in this document (tags omitted). Residues count along the entry.
UniProt P03420, 142-302: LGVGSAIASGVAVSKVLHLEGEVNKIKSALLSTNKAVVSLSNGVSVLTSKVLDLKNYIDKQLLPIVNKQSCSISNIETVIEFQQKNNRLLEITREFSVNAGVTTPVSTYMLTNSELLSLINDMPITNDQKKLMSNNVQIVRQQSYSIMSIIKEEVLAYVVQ

Columns and labels:
RSV = assay: Anti-RSV antiviral activity assay (syncytial formation, HEp2 cells); type: cell-based, respiratory syncytial virus; conditions: purified peptides
Experimental: Anti-RSV Antiviral Activity Assays:
The assay utilized herein tested the ability of the peptides to disrupt the ability of HEp2 cells acutely infected with RSV (i.e., cells which are infected with a multiplicity of infection of greater than 2) to fuse and cause syncytial formation on a monolayer of uninfected an uninfected line of Hep-2 cells. The lower the observed level of fusion, the greater the antiviral activity of the peptide was determined to be. […]
After incubation, cells in control wells were checked for fusion centers, media was removed from the wells, followed by addition, to each well, of either Crystal Violet stain or XTT. […] The number of syncytia per well were then counted, using a dissecting microscope.
With respect to XTT (2,3-bis[2-Methoxy-4-nitro-5-sulfophenyl]-2H-tetrazolium-5-carboxyanilide inner salt), 50 μl XTT (1 mg/ml in RPMI buffered with 100 mM HEPES, pH 7.2-7.4, plus 5% DMSO) were added to each well. The OD450/690 was measured (after blanking against growth medium without cells or reagents, and against reagents) according to standard procedures. […]

[1] = target: T1, DP107-like domain of the RSV F1-protein (MF5.1 fusion protein) (Human respiratory syncytial virus A, UniProt P03420); assay: biochemical; type: binding
T1 construct: made in house
Experimental: After incubation and washing, unbound Fab-d is removed from the plates and bound Fab-d is quantitated. A no-inhibitor control should also be conducted.
Such an assay takes advantage of accepted radioligand and receptor binding principles. (See, for example, Yamamura, H. I. et al., 1985, “Neurotransmitter Receptor Binding”, 2nd ed., Raven Press, NY.) As above, M41Δ78 is immobilized onto a solid support such as a microtiter well. […] Specific binding to M41Δ78 is defined as the difference of the binding of the labeled DP178 preparation in the microtiter wells (totals) and the binding in identical wells containing, in addition, excess unlabeled DP178 (nonspecifics).
Specifically, the DNA sequence corresponding amino acid residues 142-302 of the RSV F1 protein was amplified by PCR and cloned into the Xmn I site of the expression vector pMal-p2 (New England Biolab) to give MF5.1. These amino acid residues correspond to the extracellular domain of the RSV F1 protein including its DP107 region but excluding the DP178 region.
Cell fusion assays were performed with each of the peptides as described in Section 17 above.

## CC[C@H](C)[C@H](NC(=O)[C@H](Cc1ccccc1)NC(=O)[C@H](C)NC(=O)[C@H](CC(C)C)NC(=O)[C@H](CO)NC(=O)[C@H](CCC(N)=O)NC(=O)[C@H](CC(N)=O)NC(=O)[C@@H](NC(=O)[C@H](CCCCN)NC(=O)[C@H](CCC(=O)O)NC(=O)[C@H](CC(N)=O)NC(=O)[C@@H](NC(=O)[C@H](CCC(N)=O)NC(=O)[C@H](CO)NC(=O)[C@@H](NC(=O)[C@H](CO)NC(=O)[C@H](C)NC(=O)[C@H](CC(=O)O)NC(=O)[C@H](Cc1ccccc1)NC(=O)[C@H](CCC(=O)O)NC(=O)[C@H](CC(=O)O)NC(C)=O)[C@@H](C)CC)C(C)C)[C@@H](C)CC)C(=O)N[C@@H](CCCNC(=N)N)C(=O)N[C@@H](CCCCN)C(=O)N[C@@H](CO)C(=O)N[C@@H](CC(=O)O)C(=O)N[C@@H](CCC(=O)O)C(=O)N[C@@H](CC(C)C)C(=O)N[C@@H](CC(C)C)C(N)=O [Peptide T67]
RSV
  anti-RSV antiviral activity (in words): potent anti-viral activity
[1]
  binding affinity relative to T112: five times lower
[1]; binding affinity for the DP107-like domain of RSV F1 protein
  Kd: 5 nM
